Assay results taken from patent US5529989A (Arizona Board of Regents acting on behalf of Arizona State …, priority 1995, dated 1996).

Assay: water solubility
Format: physicochemical
Conditions: complexation with a range of functionalized β-cyclodextrins and a series of other approaches

For O=C1N[C@H]2[C@H](O)[C@H](O)[C@@H](O)[C@H](O)[C@@H]2c2cc3c(c(O)c21)OCO3 [pancratistatin], which “solubility improvement by complexation with functionalized β-cyclodextrins” value is on record?
The value was “did not significantly improve solubility”.
